Reference: PubChem BioAssay (Tox21)
Values joined by “and” are separate entries in the source; they are usually repeats but may differ in a detail not shown here. Equal entries are not always repeated. The entries are a selection whose mix differs from that of the whole data set. Results filed as inconclusive are left out. Active and inactive are the calls of the source. Unless noted, the call rests on the fitted dose curve; in most records, active means well fitted curve in the direction sought with a large enough effect in the repeat runs; inconclusive means weak or mixed curves; inactive means no such curve, though single readings can be large; an effect the other way counts as inactive or inconclusive.

Experiments:
[1] = qHTS assay to identify small molecule agonists of the hypoxia (HIF-1) signaling pathway - cell viability counter screen (AID 1224844; calls by dose curve; further: nearly all actives have a fitted effect of over 50% in size; further: potency means the concentration at half of the fitted maximal effect)
Summary of the method: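 In this counter screen, HRE-bla ME-180 cell viability after 17 hrs of compound exposure at 37C was read by CellTiter-Glo luminescence, multiplexed with the beta-lactamase reporter measurement.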

[2] = qHTS assay to identify small molecule agonists of the hypoxia (HIF-1) signaling pathway (AID 1224846; active means well fitted activation curve with a large enough effect in the signal ratio in the repeat runs, not every such curve was filed as active; the % refers to the signal ratio); conditions: HRE-bla ME-180 cells, beta-lactamase ratio, 17 h
Summary of the method: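 ME-180 HRE-bla reporter cells; compounds in DMSO, 17 h at 37C; read-out beta-lactamase via CCF4-AM FRET.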

[3] = qHTS assay to identify small molecule agonists of H2AX - cell viability counter screen (AID 1224847; calls by dose curve; further: nearly all actives have a fitted effect of over 30% in size; further: potency means the concentration at half of the fitted maximal effect; on activity change, negative = cytotoxicity: top concentration of the series differs between compounds)
Summary of the method: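 We seed wild-type CHO-K1 cells overnight, treat them for 3 hr at 37C with compounds in 15-concentration series, and quantify remaining viability by CellTiter-Glo luminescence.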

[4] = qHTS RealTime-Glo MT Cell Viability Assay in HepG2 cells - 24 hour (AID 1224867); further: nearly all actives have a fitted effect of over 50% in size; further: potency means the concentration at half of the fitted maximal effect
Summary of the method: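 Real-time, nonlytic viability: 600 HepG2 cells/well mixed with NanoLuc enzyme plus prosubstrate; 5 h settle, compound (DMSO) added by pintool; luminescence monitored over 40 h at 37 C.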

[5] = qHTS RealTime-Glo MT Cell Viability Assay in HEK293 cells - 32 hour (AID 1224868); further: nearly all actives have a fitted effect of over 50% in size; further: potency means the concentration at half of the fitted maximal effect; on activity change, negative = cytotoxic: top concentration of the series differs between compounds
Summary of the method: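 Cells + reagent dispensed (600 cells/well, HEK293) → 5 h at 37 C/5% CO2 → 23 nL compound in DMSO pinned → 40 h at 37 C → luminescence read at 0, 8, 16, 24, 32, 40 h.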

[6] = A CellTox Green Cytotoxicity Assay to monitor cytotoxicity in HEK293 cells - 0 hour (AID 1224869); conditions: CellTox Green fluorescence; further: nearly all actives have a fitted effect of over 50% in size
Summary of the method: (§1)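 Real-time, in one plate: 600 HEK293 cells/well with dead-cell DNA dye, pinned compound after 5 h, 37 C incubation over 40 h; viable cells give no appreciable fluorescence.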

[7] = qHTS RealTime-Glo MT Cell Viability Assay in HepG2 cells - 40 hour (AID 1224870); further: nearly all actives have a fitted effect of over 50% in size; further: potency means the concentration at half of the fitted maximal effect
Summary of the method: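 HepG2 cells mixed with RealTime-Glo MT reagents (NanoLuc plus cell-permeant prosubstrate) were seeded at 600 cells/well, incubated 5 h at 37 C/5% CO2, then pinned with compounds in DMSO; nonlytic luminescence tracked viability during 40 h treatment.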

[8] = A CellTox Green Cytotoxicity Assay to monitor cytotoxicity in HEK293 cells - 40 hour (AID 1224871); further: nearly all actives have a fitted effect of over 45% in size; further: potency means the concentration at half of the fitted maximal effect
Summary of the method: as §1

[9] = qHTS assay to identify small molecule agonists of the estrogen related receptor (ERR) signaling pathway from Tox21 library (AID 1224849; calls by dose curve; further: nearly all actives have a fitted effect of over 15% in size); conditions: ERR reporter cell line, ONE-Glo luciferase, 18 h; at 92.4 µM (top of the series) unless noted
Summary of the method: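 Luciferase activity in ERR pathway reporter cells served as the agonist readout; exposure lasted 18 h at 37 C, with ONE-Glo detection after 30 min at room temperature.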

[10] = qHTS assay to identify small molecule antagonists of the estrogen related receptor (ERR) signaling pathway from Tox21 library (AID 1224848); further: nearly all actives have a fitted effect of over 50% in size; further: potency means the concentration at half of the fitted maximal effect
Summary of the method: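 Tox21 10K compounds in DMSO tested for ERR pathway antagonism in NTP's ERR cell line; 18 h, 37 C exposure; ONE-Glo luminescence.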

[11] = at 76.8 µM (top of the series) unless noted
On the % scale 0 is the no-effect control and ±100 the full control effect.

CCCCOP(OCCCC)OCCCC
inactive: Potency [1] | activation [2, 11] 0.0217% | Potency [3] | Potency [4] | Potency [5] | cytotoxicity [6, 11] -2.43% | Potency [7] | Potency [8]

CC(C)OP(=S)(OC(C)C)SCCNS(=O)(=O)c1ccccc1
inactive: Potency [1] | activation [2, 11] 1.39% | activity change, positive = activation [9] -51.4% | Potency [4] | cytotoxicity [6, 11] 0.0649% | Potency [7] | Potency [8]

CCC(C)(OOC(C)(C)C)OOC(C)(C)C
inactive: activity change, negative = cytotoxicity [1] 0.981% [at 15.8 µM] | activation [2, 11] -0.0206% [at 15.8 µM] | activity change, negative = cytotoxicity [3] 3.2% [at 31.6 µM] | activity, negative = inhibition [10] 18.8% [at 19 µM] | activity change, positive = activation [9] 9.76% [at 19 µM] | activity change, negative = cytotoxicity [4] 0.368% [at 15.8 µM] | activity change, negative = cytotoxic [5] 10.8% [at 15.8 µM] | cytotoxicity [6, 11] 1.72% [at 15.8 µM] | activity change, negative = cytotoxic [7] 22.9% [at 15.8 µM] | cytotoxicity increase [8] -11.6% [at 15.8 µM]

ClP(Cl)c1ccccc1
inactive: Potency [1] | activation [2, 11] 0.0801% | Potency [3] | Potency [4] | Potency [5] | cytotoxicity [6, 11] 2.29% | Potency [7] | Potency [8]

O=[N+]([O-])c1ccc(S(=O)(=O)O)c([N+](=O)[O-])c1
inactive: Potency [1] | Potency [3] | Potency [4] | Potency [5] | cytotoxicity [6, 11] 1.18% | Potency [7] | Potency [8]

CCOC(=O)Cl
inactive: Potency [1] | activation [2, 11] -1.05% | Potency [3] | Potency [4] | Potency [5] | cytotoxicity [6, 11] -1.59% | Potency [7] | Potency [8]

O=C1C2CC=CCC2C(=O)N1SC(Cl)(Cl)C(Cl)Cl (stereo not given)
active: Potency [4] 44 µM and 4.9 µM | Potency [7] 44 µM and 4.9 µM
inactive: activity change, positive = activation [9] -43% and -79.7% | cytotoxicity [6, 11] 3.88% and -0.352%

O=C(Cl)OCCOC(=O)Cl
inactive: Potency [1] | activation [2, 11] -0.719% | Potency [3] | Potency [10] | activity change, positive = activation [9] 1.86% | Potency [4] | Potency [5] | cytotoxicity [6, 11] -0.409% | Potency [7] | Potency [8]

CN(C(=O)Cc1ccccc1)[C@H]1CC[C@@]2(CCCO2)C[C@@H]1N1CCCC1
inactive: Potency [1] | Potency [3] | Potency [4] | Potency [5] | cytotoxicity [6, 11] 0.572% [at 35.3 µM] | Potency [7] | Potency [8]

Cc1cc([N+](=O)[O-])c(O)c([N+](=O)[O-])c1
inactive: Potency [1] | activation [2, 11] 0.47% | Potency [3] | activity change, positive = activation [9] -28.5% | Potency [4] | Potency [5] | cytotoxicity [6, 11] -7.26% | Potency [7] | Potency [8]

CN(C(=O)Cc1ccc(Cl)c(Cl)c1)[C@H]1CC[C@@]2(CCCO2)C[C@@H]1N1CCCC1
inactive: Potency [1] | Potency [3] | Potency [4] | Potency [5] | cytotoxicity [6, 11] -7.54% [at 35.3 µM] | Potency [7] | Potency [8]

CC(C)CCCCCCCOP(OCCCCCCCC(C)C)Oc1ccccc1
inactive: Potency [1] | activation [2, 11] 0.838% | activity change, positive = activation [9] -20.1% | Potency [4] | Potency [5] | cytotoxicity [6, 11] 6.32% | Potency [7] | Potency [8]

O=[As]c1ccccc1 (stereo not given)
active: Potency [3] 12.7 µM | Potency [10] 243 nM | Potency [7] 347 nM | Potency [8] 0.49 µM
inactive: activity change, positive = activation [9] -81.5% | cytotoxicity [6, 11] -5.69%

CCCCCCCCCCCCCC[P+](CCCCCC)(CCCCCC)CCCCCC
active: Potency [5] 3.08 µM
inactive: cytotoxicity [6, 11] 15.4%

Cc1cc([N+](=O)[O-])cc([N+](=O)[O-])c1O
inactive: Potency [1] | activation [2, 11] -0.866% | activity change, positive = activation [9] -57.8% and -62.2% | cytotoxicity [6, 11] 0.481% and -9.37% | Potency [8]
active: Potency [10] 15.4 µM and 13.7 µM

CN(N=O)C(=N)N[N+](=O)[O-]
inactive: activation [2, 11] 0.0404% | Potency [3] | Potency [10] | activity change, positive = activation [9] 1.32% | Potency [4] | cytotoxicity [6, 11] 3.15% | Potency [7] | Potency [8]

O=C(Cl)Oc1ccccc1
inactive: Potency [1] | activation [2, 11] -0.0149% | Potency [3] | Potency [10] | activity change, positive = activation [9] -5.16% | Potency [4] | Potency [5] | cytotoxicity [6, 11] -3.37% | Potency [7] | Potency [8]

O=[P+](Oc1ccccc1)Oc1ccccc1
inactive: Potency [1] | activation [2, 11] 1.09% | Potency [3] | Potency [4] | Potency [5] | cytotoxicity [6, 11] 4.42% | Potency [7] | Potency [8]

O=P(Cl)(Oc1ccccc1)Oc1ccccc1
inactive: Potency [1] | activation [2, 11] 0.376% | Potency [3] | Potency [4] | Potency [5] | cytotoxicity [6, 11] 4.52% | Potency [7] | Potency [8]

COP(=S)(Cl)OC
inactive: activation [2, 11] 0.727% | Potency [3] | Potency [4] | Potency [5] | cytotoxicity [6, 11] -2.4% | Potency [7] | Potency [8]

N#CSc1ccc([N+](=O)[O-])cc1[N+](=O)[O-]
active: Potency [1] 9.77 µM | Potency [3] 45 µM
inactive: activity change, positive = activation [9] -78.8% | cytotoxicity [6, 11] 0.604%

NC(=O)Nc1ccc([As](=O)(O)O)cc1
inactive: Potency [1] | activation ([2]; at 35.5 µM (top of the series)) -0.456% | activation ([2]; at 76.8 µM (top of the series)) 0.0793% | Potency [4] | Potency [5] | cytotoxicity ([6]; at 35.3 µM (top of the series)) -1.3% | cytotoxicity ([6]; at 76.8 µM (top of the series)) 1.78% | Potency [7] | Potency [8]

O=P(Cl)(Cl)c1ccccc1
inactive: Potency [1] | activation [2, 11] 0.034% | Potency [3] | Potency [10] | activity change, positive = activation [9] 1.75% | Potency [4] | Potency [5] | cytotoxicity [6, 11] -3.16% | Potency [7] | Potency [8]

CN(C(=O)Cc1cccc2occc12)[C@H]1CC[C@@]2(CCCO2)C[C@@H]1N1CCCC1
inactive: Potency [1] | activation [2, 11] -1.29% | Potency [3] | Potency [4] | Potency [5] | cytotoxicity [6, 11] -2.17% | Potency [7] | Potency [8]

O=[N+]([O-])c1ccc([N+](=O)[O-])cc1
inactive: Potency [1] | Potency [4] | Potency [5] | cytotoxicity [6, 11] -9.57% | Potency [7] | Potency [8]

O=[p+]1oc2ccccc2c2ccccc21 (stereo not given)
inactive: Potency [1] | activation [2, 11] -1.3% | Potency [3] | Potency [10] | activity change, positive = activation [9] -1.85% | Potency [4] | Potency [5] | cytotoxicity [6, 11] 6.92% | Potency [7] | Potency [8]

CCCCC(CC)CO[P+](=O)OCC(CC)CCCC (stereo not given)
inactive: Potency [1] | activation [2, 11] -0.396% | Potency [3] | Potency [4] | Potency [5] | cytotoxicity [6, 11] -2.28% | Potency [7] | Potency [8]

COC(=O)Cl
inactive: Potency [1] | activation [2, 11] -0.841% | Potency [3] | Potency [4] | Potency [5] | cytotoxicity [6, 11] -1.65% | Potency [7] | Potency [8]

CCCCO[P+](=O)OCCCC
inactive: Potency [1] | activation [2, 11] 0.0918% and -0.073% | Potency [3] | Potency [10] | activity change, positive = activation [9] 2.62% and 1.7% | Potency [4] | Potency [5] | cytotoxicity [6, 11] -0.702% and -7.77% | Potency [7] | Potency [8]

CCOP(=S)(CC)Sc1ccccc1 (stereo not given)
inactive: Potency [1] | activation [2, 11] 1.37% | Potency [3] | Potency [10] | activity change, positive = activation [9] -3.01% | Potency [4] | Potency [5] | cytotoxicity [6, 11] 0.213% | Potency [7] | Potency [8]

CCNC(C)Cc1ccc2c(c1)OCO2 (stereo not given)
inactive: Potency [1] | Potency [3] | Potency [10] | activity change, positive = activation [9] 12.7% | Potency [4] | Potency [5] | cytotoxicity [6, 11] 0.172% | Potency [7] | Potency [8]
